Measured affinities in a library of Ab-14 light chain variants

Reference: Li et al. 2023, doi:10.1038/s41467-023-39022-2. File: FLAb, binding data.

All variants were tested on one target, the spike HR2 peptide PDVDLGDISGINAS (SARS-CoV-2).

The variants keep the heavy chain, the linker and the frameworks of Ab-14 (scFv order VH, a (GGGGS)3 linker, VL).
VH: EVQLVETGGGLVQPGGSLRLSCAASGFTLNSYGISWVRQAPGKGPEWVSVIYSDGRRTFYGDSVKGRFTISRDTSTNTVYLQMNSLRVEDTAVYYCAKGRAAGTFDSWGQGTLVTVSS
VL: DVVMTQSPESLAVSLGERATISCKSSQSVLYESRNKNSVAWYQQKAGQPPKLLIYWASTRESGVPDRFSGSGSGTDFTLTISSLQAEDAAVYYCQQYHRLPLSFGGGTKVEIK

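The starting antibody came from a phage panning campaign against this peptide. Designed CDR sequences, proposed from the first random library and measured here. Their group label is 14L_GP_Gibbs (GP: Gaussian process model; Gibbs: Gibbs sampling; a sequence that several methods proposed may carry one label only). The assay is AlphaSeq: two haploid yeast populations carry antibody and antigen on their surface. Binding brings cells together so that they mate, and sequencing counts the barcode pairs among the diploids. A regression on co-assayed BCL2-family reference pairs converts the normalised counts of each replicate to an apparent Kd. Each pool was mated in six replicate cultures.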

Positions count from residue 1 of the parent VL; S28Q puts Q in place of S.
The read-out is the apparent dissociation constant on a log10 scale (nM): the lower, the stronger.
A pair that was not seen in that replicate is written "n.d."; this usually means weak binding, but a binder can also be missed.
Background: pairings of all light chain designs with three empty control strains gave a value in 4% of cases (median 2.64, 5th percentile 1.59). Values in that range, when seen in few replicates, are hard to tell from nonspecific mating. Also given: how often the same scFv was detected with the empty control strains, with their mean in brackets.
In the paper, a design with two or fewer of six values counts as a poor binder.
A sequence measured in both rounds can read differently, since the two assays cover different ranges.
Of ten entries with the parent sequence, four were seen in most replicates (averages 0.34 to 2.37), three in one and three in none, so single entries are noisy.

changes,"replicates, log10 nM",signal with controls
S28Q Y31G K36M W56N S62E,0.32 / 0.23 / 0.07 / 0.16 / 0.09 / 0.13,0/18
S25I S28L V29G W56N S58N,0.48 / 0.23 / 0.50 / 0.18 / 0.48 / 0.23,1/18 (1.90)
K24H S25L L30G S33M W56E S58Q S62Q,-0.06 / -0.01 / -0.25 / -0.15 / -0.14 / -0.05,1/18 (2.75)
S25M S26Q V29Q N35M K36S S38A W56N T59Q E61M,0.04 / -0.07 / -0.02 / -0.06 / -0.21 / -0.04,3/18 (3.25)
S25V S26M W56N S62L,0.17 / -0.49 / 0.07 / -0.24 / -0.13 / 0.17,0/18
S25L Q27M L30W N35M K36C W56E,0.53 / 0.21 / 0.39 / 0.06 / 0.39 / 0.47,0/18
S25V Q27E V29E L30E N35W W56N T59Y,0.63 / 0.42 / 0.37 / 0.52 / 0.41 / 0.34,1/18 (2.75)
S25V S26D S28E L30D Y31G E32Q W56D S62W,-0.18 / -0.38 / -0.30 / -0.60 / -0.41 / -0.29,2/18 (2.62)
S25Y Q27G V29E Y31G S33Q W56N S62E,-0.26 / -0.24 / 0.05 / -0.41 / -0.37 / -0.34,0/18
S25I V29A Y31M S33P W56N T59Q E61Q S62M,-0.06 / 0.18 / 0.06 / -0.16 / -0.07 / 0.22,1/18 (2.30)
S25L S26Q Q27G L30M Y31M E32L K36D W56D,0.14 / 0.05 / -0.11 / 0.05 / -0.18 / 0.65,0/18
S25F S28E L30G Y31M K36M W56N S62E,0.03 / 0.00 / -0.19 / -0.25 / -0.03 / 0.15,1/18 (3.56)
S25Q S28A L30P S33Q S38N W56D A57G,-0.49 / -0.44 / 0.08 / -0.24 / -0.49 / 0.32,0/18
K24H S25A V29G S33Q N35V W56S T59M,0.80 / 0.93 / 0.45 / 0.70 / 0.53 / 0.77,1/18 (2.70)
S25L S28W V29W N35M S38A W56N S62D,0.27 / 0.02 / 0.25 / -0.11 / 0.06 / -0.01,0/18
S25I Q27G L30M Y31M E32L W56E S58N,0.12 / -0.30 / -0.35 / -0.17 / -0.11 / 0.15,1/18 (3.87)
S25L V29M L30E K36V W56Y S62L,0.96 / 0.49 / 0.60 / 0.59 / 0.95 / 0.67,0/18
S25L S26Q S28W V29H E32G N35M W56H T59Q Q96C,1.84 / 2.09 / 1.41 / 1.96 / 2.20 / n.d.,0/18
S25L S26Q V29N S38N W56E S58T T59L S62Q,-0.42 / -0.41 / -0.50 / -0.67 / -0.58 / -0.46,1/18 (3.05)
S25L S26Q L30G Y31M N35M K36V S38N W56A S62D,0.18 / 0.13 / 0.39 / 0.13 / -0.28 / 0.08,1/18 (1.17)
S25L Q27P Y31G E32M W56N,0.24 / 0.27 / 0.15 / -0.01 / 0.27 / 0.73,1/18 (2.19)
S25V S26D Q27F V29W L30W W56N S62Q,0.54 / 0.06 / 0.49 / 0.24 / 0.00 / 0.39,2/18 (2.72)
S25M Q27P V29E E32L S33D K36C S38A W56Q T59Q,0.64 / 0.78 / 0.14 / 0.67 / 0.72 / 0.79,0/18
S25L Q27P S28E L30E N35L W56N E61L S62E,0.31 / 0.14 / 0.43 / 0.43 / 0.24 / 0.79,1/18 (2.47)
S25L S26Q V29D N35V W56Q T59V,0.30 / -0.23 / -0.01 / -0.56 / -0.52 / 0.06,0/18
S25V S26M V29H L30W Y31G W56H T59L S62V,1.09 / 0.79 / 0.99 / 0.33 / 1.14 / 0.97,2/18 (3.01)
V29E N35H K36G W56N T59Y S62D,1.10 / 0.77 / 1.60 / 1.08 / 1.31 / 0.65,1/18 (3.50)
S25V S26G V29F Y31Q W56H T59M,0.12 / 0.09 / 0.12 / -0.09 / 0.05 / 0.34,0/18
S25L S26Q L30Q N35V S38A W56Q T59V,1.13 / 1.11 / 1.53 / 0.86 / 1.89 / 1.45,0/18
S25L S26Q Q27G V29E S33E K36D W56Q T59Q Q96D,2.18 / 1.18 / 1.41 / 2.50 / 1.76 / 1.45,1/18 (3.50)
S25I S26I V29G L30P W56S E61S,0.25 / 0.06 / -0.20 / -0.20 / -0.29 / -0.17,1/18 (3.88)
S25V S28G,0.64 / 0.33 / 0.58 / 0.14 / 0.59 / 0.15,0/18
S25V S26Q S28M V29W E32G K36C W56D T59Q S62E,0.47 / 0.70 / 0.65 / 0.39 / 0.48 / 0.59,1/18 (3.94)
S25L Q27M L30M Y31M E32W K36T W56S S58N S62E,0.30 / 0.04 / 0.12 / 0.03 / 0.45 / 0.67,1/18 (0.33)
K24L S25L V29S L30G S33Q W56D T59Q E61L,0.01 / -0.22 / -0.22 / -0.45 / -0.36 / -0.19,1/18 (4.18)

The opening 5 entries, copied out:

changes,"replicates, log10 nM",signal with controls
S28Q Y31G K36M W56N S62E,0.32 / 0.23 / 0.07 / 0.16 / 0.09 / 0.13,0/18
S25I S28L V29G W56N S58N,0.48 / 0.23 / 0.50 / 0.18 / 0.48 / 0.23,1/18 (1.90)
K24H S25L L30G S33M W56E S58Q S62Q,-0.06 / -0.01 / -0.25 / -0.15 / -0.14 / -0.05,1/18 (2.75)
S25M S26Q V29Q N35M K36S S38A W56N T59Q E61M,0.04 / -0.07 / -0.02 / -0.06 / -0.21 / -0.04,3/18 (3.25)
S25V S26M W56N S62L,0.17 / -0.49 / 0.07 / -0.24 / -0.13 / 0.17,0/18